## Apparent affinities of Ab-14 variants for a coronavirus HR2 peptide

The target is the same throughout: PDVDLGDISGINAS, from the HR2 region of SARS-CoV-2 spike.

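Phage display of a naive human antibody library on the peptide gave the parent. Variants in AAYL50 differ from the parent at up to three CDR positions; double and triple changes were sampled at random. The assay is AlphaSeq: two haploid yeast populations carry antibody and antigen on their surface. Pairs that bind mate more often; barcode pairs of the diploids are counted by sequencing. Scores were corrected for input abundance and mapped to Kd with protein pairs of known affinity run in the same pool. Each pool was mated in three replicate cultures.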

Each scFv is VH, a 15-residue (Gly4Ser)3 linker, VL, as in the parent Ab-14, and differs from it in the CDRs of the light chain only.
VH: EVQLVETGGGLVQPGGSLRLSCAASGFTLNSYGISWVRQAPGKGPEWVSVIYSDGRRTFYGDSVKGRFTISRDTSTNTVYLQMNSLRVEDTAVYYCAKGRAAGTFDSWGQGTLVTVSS
VL: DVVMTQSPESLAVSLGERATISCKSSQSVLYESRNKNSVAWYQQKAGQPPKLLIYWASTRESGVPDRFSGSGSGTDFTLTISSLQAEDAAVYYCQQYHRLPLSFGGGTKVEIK

Variants are written as CDR1, CDR2 and CDR3 of the light chain (limits as in the source). Parent: KSSQSVLYESRNKNSVA, WASTRES, QQYHRLPLS. Numbers give log10(Kd / nM), so 0 is 1 nM and 3 is 1 µM. Smaller is tighter. "n.d." means that the variant was in the library but no mating with the target was seen in that replicate; the authors take this as a sign of poor binding, and no number exists. Empty control strains, which show no peptide, gave a signal in 18% of pairings with library AAYL50; the median was 4.19 and 95% of these signals were weaker than 2.99. No background was subtracted. Also given: how often the same scFv was detected with the empty control strains, with their mean in brackets. Parent in this assay: reference entry 0.65, copy in this library 1.68.

CDR-L1,CDR-L2,CDR-L3,"replicates, log10 nM",empty controls
KSSQSVLYQSRNKNSVA,WYSTRES,QDYHRLPLS,n.d. n.d. n.d.,0/9
KSSQRVLPESRNKNSVA,WASTRES,QQYTRLPLS,2.81 3.09 2.74,1/9 (4.12)
KSSQSVRYESQNKNSVY,WASTRES,QQYHRLPLS,3.27 n.d. 5.54,2/9 (3.33)
KSSQCVLYESRNKNSVA,WKSRRES,QQYHRLPLS,n.d. n.d. n.d.,0/9
ESSQSVLYESRNKNSVA,WASTREM,IQYHRLPLS,4.69 4.02 4.24,3/9 (3.98)
KSSQSVLKESRNMNSVA,WASTRES,QMYHRLPLS,0.82 0.98 0.87,4/9 (4.98)
KSLQSVLYESRNKNSVA,WASTGES,QQYFRLPLS,n.d. n.d. 4.66,2/9 (3.03)
KRSQKVLYESRNKNSVA,WASTRFS,QQYHRLPLS,2.26 2.99 n.d.,0/9
KSSQSVLYESRNKNSVA,WASTRLS,QQYHNRPLS,n.d. n.d. n.d.,0/9
KSSQSVLYESRNKNSVW,WASTRES,DQYHRLPLS,n.d. n.d. n.d.,0/9
KSSQSVLYESRNKNSVA,WASVRES,QQYHALPLS,0.99 1.13 0.91,1/9 (3.81)
KHSQSVLYESRNKNYVA,WASMRES,QQYHRLPLS,1.75 1.71 1.85,1/9 (3.60)
KSSVIVLYESRNKNSLA,WASTRES,QQYHRLPLS,3.97 n.d. n.d.,0/9
KSSQSVLYESRVKNSVA,WASTRES,QQYLRKPLS,n.d. n.d. 5.48,3/9 (3.72)
KSNQSVLYEQRNKNSVE,WASTRES,QQYHRLPLS,n.d. n.d. 5.21,0/9
KSSQSVLYESRNKNSVA,FASTREP,QQYHALPLS,1.00 0.86 0.91,0/9
KSSQSVLYESRNKNSKA,WASTRES,QQYHYLPLS,2.49 2.79 3.74,4/9 (4.12)
KSSQVVLYESRNKNSVA,WASTRES,QQYHRTPLS,3.27 2.36 2.08,2/9 (3.82)
KSSQSVLYESRNKNSVA,WASTYES,QQMHRLPFS,n.d. n.d. n.d.,3/9 (4.78)
KSSQSVLYSSRGKNSVA,WAVTRES,QQYHRLPLS,2.54 2.09 2.18,2/9 (3.77)
KSSQSVLYETRNPNSVA,WASTRES,QQYHKLPLS,0.91 1.00 1.04,0/9
GSSQWVSYESRNKNSVA,WASTRES,QQYHRLPLS,1.48 n.d. 1.87,1/9 (3.27)
KSSQSVLWSSMNKNSVA,WASTRES,QQYHRLPLS,0.75 1.21 0.81,0/9
KSSQSVLYESRNKNWVA,WASTRES,QQYHEHPLS,n.d. 4.71 n.d.,1/9 (3.32)
KSSQSVLYESRNKESVA,WAPTRES,QQYCRLPLS,n.d. 3.45 n.d.,0/9
KSPQSVGYESRNKNSVA,WASTREK,QQYHRLPLS,0.31 0.70 0.60,3/9 (5.34)
KSSQSVLYMPRNKNSVA,WASTRES,QQPHRLPLS,0.68 0.80 0.96,0/9
KSSQSVKCESANKNSVA,WASTRES,QQYHRLPLS,1.88 1.78 1.53,5/9 (3.52)
KSQQSVLQESRNKNSVA,WASTAES,QQYHRLPLS,4.68 2.89 3.52,3/9 (3.48)
KSSQSVTYESRNKNSVT,WASTREQ,QQYHRLPLS,n.d. n.d. n.d.,3/9 (3.37)
KSSQSVLYESRNKTGVA,WASTRES,YQYHRLPLS,4.06 3.24 4.12,2/9 (3.60)
NSSQSVLYEARRKNSVA,WASTRES,QQYHRLPLS,3.03 2.84 3.61,2/9 (3.83)
KSSQSVLYESRNKMSVA,WASTRTS,QQYHRLPLS,2.15 2.07 2.39,4/9 (4.04)
KSSQSELYESRNKNEVA,WWSTRES,QQYHRLPLS,n.d. n.d. 4.14,3/9 (3.93)
KSSQHVLYEKRNKNSVC,WASTRES,QQYHRLPLS,5.34 3.81 5.80,1/9 (4.31)
KSVQSVLYEQRNKNSVA,WASTRES,QQYHRLPLS,1.95 1.77 2.30,3/9 (3.74)

The measurements come from Engelhart et al. 2022 (doi:10.1038/s41597-022-01779-4) through the FLAb antibody collection.